Source: PMC5189922 (Journal of medicinal chemistry, 2016)

Protein sequences, listed by entry. Tags and fused reporters are not part of them.
UniProt P35372, whole entry: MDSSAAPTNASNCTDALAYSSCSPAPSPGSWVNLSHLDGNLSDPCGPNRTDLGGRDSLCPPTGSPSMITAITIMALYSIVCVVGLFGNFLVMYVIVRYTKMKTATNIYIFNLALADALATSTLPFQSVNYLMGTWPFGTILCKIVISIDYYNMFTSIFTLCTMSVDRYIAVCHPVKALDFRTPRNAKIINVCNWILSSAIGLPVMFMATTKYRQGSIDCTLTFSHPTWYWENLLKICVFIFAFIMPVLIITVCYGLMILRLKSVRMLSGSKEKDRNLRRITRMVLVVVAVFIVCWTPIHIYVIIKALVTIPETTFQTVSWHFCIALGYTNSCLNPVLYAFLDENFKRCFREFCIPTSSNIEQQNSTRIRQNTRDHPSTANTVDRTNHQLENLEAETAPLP

What was measured:
[1] = Accelerating rotarod performance assay; conditions: 10 mg/kg i.p., 4 to 40 rpm over 300 s
[2] = Conditioned place preference; conditions: 5 mg/kg and 10 mg/kg i.p., male Sprague Dawley rats, vs vehicle
[3] = biological target: human µ-opioid receptor (Homo sapiens, UniProt P35372); format: cell-based

Structure (SMILES)	Selectivity κ/µ [3]	further results
CN1CC[C@]23c4c5ccc(O)c4O[C@H]2[C@@H](O)C=C[C@H]3[C@H]1C5 [Morphine, morphine, reference compound]	–	motor coordination / sedation on rotarod [1]: significant decrease in motor coordination; conditioned place preference (CPP score) [2]: significant place preference
COC(=O)[C@@H]1C[C@H](OC(C)=O)C(=O)[C@H]2[C@@]1(C)CC[C@H]1C(=O)O[C@H](c3ccoc3)C[C@]21C [Compound 1a, salvinorin A, reference compound]	–	EC50 ([3]; read-out: EC50 ± SD µ): > 10 µM
COC(=O)[C@@H]1C=C(OC(=O)c2ccc(Cl)cc2)C(=O)[C@H]2[C@@]1(C)CC[C@H]1C(=O)O[C@H](c3ccoc3)C[C@]21C [Compound 13b]	>330	–
COC(=O)[C@@H]1C=C(OC(=O)c2ccc(C)cc2)C(=O)[C@H]2[C@@]1(C)CC[C@H]1C(=O)O[C@H](c3ccoc3)C[C@]21C [Compound 16b]	>450	–
COC(=O)[C@@H]1C=C(OC(=O)c2ccc([N+](=O)[O-])cc2)C(=O)[C@H]2[C@@]1(C)CC[C@H]1C(=O)O[C@H](c3ccoc3)C[C@]21C [Compound 19b]	>320	–
